By UniProt entry, the sequences of proteins in these tests, tags left out. Where a name states a change or a piece, a line headed by the entry shows the natural chain unless it says otherwise.
UniProt P23443: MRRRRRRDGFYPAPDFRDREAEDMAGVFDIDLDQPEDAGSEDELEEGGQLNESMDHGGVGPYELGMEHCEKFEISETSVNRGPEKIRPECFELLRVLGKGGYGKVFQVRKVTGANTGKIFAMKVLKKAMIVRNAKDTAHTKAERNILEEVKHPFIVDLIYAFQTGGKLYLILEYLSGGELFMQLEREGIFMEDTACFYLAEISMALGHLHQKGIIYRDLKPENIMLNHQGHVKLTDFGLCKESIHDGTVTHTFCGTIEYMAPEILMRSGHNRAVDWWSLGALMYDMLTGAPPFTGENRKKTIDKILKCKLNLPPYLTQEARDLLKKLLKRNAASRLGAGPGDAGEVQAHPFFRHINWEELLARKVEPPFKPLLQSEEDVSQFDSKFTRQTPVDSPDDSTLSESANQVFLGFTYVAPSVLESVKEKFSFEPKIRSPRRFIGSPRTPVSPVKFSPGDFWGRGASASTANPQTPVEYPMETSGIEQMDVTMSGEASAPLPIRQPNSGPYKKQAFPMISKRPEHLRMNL

According to the kinase profiling compilation of Christmann-Franck et al. (2016):

Biological target: RPS6KB1 (human) (UniProt P23443)
Experiment: radiometric filter-binding kinase assay
Settings: ATP 100 µM

IC50: 160 nM
SMILES: CCc1cncnc1N1CCN(Cc2nc3cc(C(F)(F)F)ccc3[nH]2)CC1
